The list shows a part of the results, in another mix than the full data. Records with an inconclusive call do not appear. The source made the active and inactive calls. The calls were made as follows, unless noted: active = hit-call score of the fitted dose curve at least 0.9, where 1 is the maximum; inactive = score below 0.9.
Legend:
[1] = ATG_CMV_CIS: Attagene CIS-FACTORIAL HepG2 Assay for human CMV (Internal Marker) (AID 2282928); settings: HepG2 CMV promoter reporter, transcription factor profiling; actives raise or lower the signal;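 also: endpoint acts as a background internal control marker rather than a target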
Method in brief: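 Cell system: HepG2, transiently transfected multiple reporter units under cis promoters. Exposure: 24 h. Detection: RT-PCR, FAM labeling, HpaI digestion, capillary electrophoresis. Analysis: bidirectional, DMSO baseline.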

Chains of the proteins cited; added tags and fusions are not shown.
UniProt Q16656, whole entry: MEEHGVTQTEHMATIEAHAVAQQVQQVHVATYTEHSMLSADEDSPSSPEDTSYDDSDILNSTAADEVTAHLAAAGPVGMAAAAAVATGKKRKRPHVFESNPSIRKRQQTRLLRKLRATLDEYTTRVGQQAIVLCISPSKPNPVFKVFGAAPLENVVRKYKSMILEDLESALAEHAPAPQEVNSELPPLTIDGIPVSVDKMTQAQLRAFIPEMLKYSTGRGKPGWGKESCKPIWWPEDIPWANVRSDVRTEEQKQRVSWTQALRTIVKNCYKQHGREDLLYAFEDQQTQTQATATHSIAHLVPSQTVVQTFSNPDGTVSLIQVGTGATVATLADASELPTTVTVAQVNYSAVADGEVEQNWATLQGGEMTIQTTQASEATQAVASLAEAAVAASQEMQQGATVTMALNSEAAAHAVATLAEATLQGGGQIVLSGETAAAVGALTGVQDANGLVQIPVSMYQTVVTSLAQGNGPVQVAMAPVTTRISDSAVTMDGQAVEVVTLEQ

[2] = read-out: Interferon-gamma inducible Protein 10 (IP10), CXCL10 (gene 3627); test: BSK_BE3C_IP10: BioMAP Diversity Plus: BE3C Assay for Interferon-gamma inducible Protein 10 (IP10) Biomarker Activity (AID 2283034); settings: actives raise or lower the signal; primary human bronchial epithelial cells
Method in brief: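 Human primary bronchial epithelial cells were exposed to chemicals for 24 hours, after which IP-10 levels were measured by ELISA. Data were fitted bidirectionally against DMSO, which served as the negative control and activity baseline.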

[3] = ATG_CRE_CIS: Attagene CIS-FACTORIAL HepG2 Assay for human cAMP Responsive Element (CRE) binding protein 3 (AID 2282926); settings: HepG2 CRE cis-reporter, Attagene multiplexed mRNA; actives raise or lower the signal
Method in brief: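 Human liver HepG2, transient MRTU transfection, 24 h compound exposure. Total RNA → oligo(dT) RT → PCR → 6-FAM primer extension → HpaI cut → CE. Activity called both directions vs DMSO.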

[4] = ATG_EGR_CIS: Attagene CIS-FACTORIAL HepG2 Assay for human Early Growth Response 1 (EGR1) (AID 2282938); settings: HepG2 Attagene CIS-FACTORIAL EGR reporter mRNA; actives raise or lower the signal
Method in brief: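 After 24 h compound exposure, RNA from reporter-transfected HepG2 cells was reverse-transcribed, PCR-amplified, fluorescently labelled and resolved by capillary electrophoresis. EGR1 reporter transcript changes, up or down, were fitted against DMSO, reflecting endogenous transcription-factor activity.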

[5] = ATG_GLI_CIS: Attagene CIS-FACTORIAL HepG2 Assay for human Zinc Finger Protein GLI1 (AID 2282945); settings: HepG2, Attagene cis-factorial reporter mRNA, GLI element; actives raise or lower the signal
Method in brief: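 HepG2 cells transiently transfected with cis-promoter multiplexed reporter units report endogenous transcription factor activity. After 24 h chemical exposure, reporter mRNA was quantified by RT-PCR, 6-FAM labelling, HpaI digestion and capillary electrophoresis, with bidirectional fitting against DMSO.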

[6] = ATG_ISRE_CIS: Attagene CIS-FACTORIAL HepG2 Assay for human Interferon Regulatory Factor 1 (IRF1) binding to an Interferon-Stimulated Response Element (ISRE) (AID 2282948); settings: HepG2 ISRE cis-reporter (Attagene), mRNA transcription readout; actives raise or lower the signal
Method in brief: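 Quantitation relies on labelled RT-PCR fragments separated by capillary electrophoresis. Human HepG2 cells bearing cis-promoter reporter constructs were treated 24 h; DMSO served as baseline for bidirectional fitting.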

[7] = target: Nuclear respiratory factor 1 (Homo sapiens) (UniProt Q16656); test: ATG_NRF1_CIS: Attagene CIS-FACTORIAL HepG2 Assay for human Nuclear Respiratory Factor 1 (NRF1) Orphan Gene (AID 2282987); settings: HepG2 NRF1 cis-element reporter, Attagene multiplex; actives raise or lower the signal
Method in brief: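 Endogenous NRF1-driven reporter transcription in transfected HepG2 cells after 24 h treatment. Readout: RT-PCR products, 6-FAM labelled and resolved by capillary electrophoresis; changes fitted both directions relative to DMSO.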

[8] = ATG_NF_kB_CIS: Attagene CIS-FACTORIAL HepG2 Assay for human Nuclear Factor Kappa B (NF-kB) (AID 2282991); settings: HepG2 Attagene cis-factorial NF-kB reporter mRNA; actives raise or lower the signal
Method in brief: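 Readout is reporter transcript level, gain or loss versus DMSO, measured 24 h post-dose via RT-PCR, fluorescent labelling and capillary electrophoresis. Human HepG2 liver cells carried transiently transfected CIS reporter constructs reflecting endogenous factors.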

[9] = ATG_XTT_Cytotoxicity: Cytotoxicity Assessment in the Attagene TRANS-FACTORIAL HepG2 Assay (AID 2283584; active = hit-call score of the fitted dose curve at least 0.9, where 1 is the maximum;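 also: cells exposed to compound for 24 h before reading; active means loss of viability signal versus DMSO baseline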)
Method in brief: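 Cells: human HepG2, transiently transfected with MRTU reporter constructs. Exposure 24 h. Readout: XTT, cell number. Baseline/neg ctrl DMSO; loss-of-signal scored.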

Measured: AC50

Cc1ccc([N+](=O)[O-])c([N+](=O)[O-])c1
active: [1] 49500 nM | [2] 12500 nM

O=[As]c1ccccc1 (centres undefined)
active: [3] 295 nM | [4] 332 nM | [5] 469 nM | [6] 323 nM | [7] 332 nM | [8] 234 nM | [9] 1340 nM
